Measured values reported in publication PMC4411481, “Cyclic nucleotide binding and structural changes in the isolated GAF domain of Anabaena adenylyl cyclase, CyaB2” (PeerJ, 2015).

Key:
HEK293T cells = test: Intracellular cNMP estimation by radioimmunoassay; format: cell-based, Human; conditions: 100 µM SNP, 2 min
Protocol: Intracellular levels of cyclic nucleotide monophosphates (cNMP) were measured from the cells used for BRET measurements, or […] transfected and treated cells. Cells were lysed in 0.1 N HCl and cNMP was measured by radioimmunoassay as described earlier ([Bakre, […], 2000]).

[1] = test system: HEK293T cells expressing the GAFb sensor; test: Cellular BRET assay, GAFb sensor; format: cell-based, Human; conditions: 100 µM; forskolin 5 min, SNP 2 min, 37 °C

Substance: sodium nitroprusside
- intracellular levels of cGMP (HEK293T cells): increased intracellular levels
- change in BRET ratios in live cells [1]: no significant changes

This is a selection: effects in other tests are not listed, and their absence says nothing.
